In patent EP1169483B1:

Test system: Thr164 receptor
Conditions: Chinese hamster fibroblast cells, following washing; n = 5, p = 0.001

OCc1cc(C(O)CNCCCCCCOCCCCc2ccccc2)ccc1O (stereo not shown) [salmeterol]
loss of cAMP response, half-time: 0.78 ± 0.06 h
